Assay results as given in publication PMC4492759, “Pharmacological profiling of the hemodynamic effects of cannabinoid ligands: a combined in vitro and in vivo approach” (Pharmacology Research & Perspectives, 2015).
Entries after “also recorded” stand apart in the source; their conditions may differ.

Protein sequences, listed by entry. Tags and fused reporters are not part of them.
UniProt P20272, whole entry: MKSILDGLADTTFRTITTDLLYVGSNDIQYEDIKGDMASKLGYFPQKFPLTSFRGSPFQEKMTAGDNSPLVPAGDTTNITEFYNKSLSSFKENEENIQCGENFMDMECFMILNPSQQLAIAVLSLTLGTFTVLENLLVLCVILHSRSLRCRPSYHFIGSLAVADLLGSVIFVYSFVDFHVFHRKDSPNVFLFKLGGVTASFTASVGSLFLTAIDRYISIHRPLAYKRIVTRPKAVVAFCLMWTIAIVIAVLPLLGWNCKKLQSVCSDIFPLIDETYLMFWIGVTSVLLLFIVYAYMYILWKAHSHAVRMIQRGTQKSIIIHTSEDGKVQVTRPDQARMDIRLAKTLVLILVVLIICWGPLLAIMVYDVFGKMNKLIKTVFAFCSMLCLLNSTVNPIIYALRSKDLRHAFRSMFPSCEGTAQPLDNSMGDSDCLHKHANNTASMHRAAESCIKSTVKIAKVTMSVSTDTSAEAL
UniProt P47746, whole entry: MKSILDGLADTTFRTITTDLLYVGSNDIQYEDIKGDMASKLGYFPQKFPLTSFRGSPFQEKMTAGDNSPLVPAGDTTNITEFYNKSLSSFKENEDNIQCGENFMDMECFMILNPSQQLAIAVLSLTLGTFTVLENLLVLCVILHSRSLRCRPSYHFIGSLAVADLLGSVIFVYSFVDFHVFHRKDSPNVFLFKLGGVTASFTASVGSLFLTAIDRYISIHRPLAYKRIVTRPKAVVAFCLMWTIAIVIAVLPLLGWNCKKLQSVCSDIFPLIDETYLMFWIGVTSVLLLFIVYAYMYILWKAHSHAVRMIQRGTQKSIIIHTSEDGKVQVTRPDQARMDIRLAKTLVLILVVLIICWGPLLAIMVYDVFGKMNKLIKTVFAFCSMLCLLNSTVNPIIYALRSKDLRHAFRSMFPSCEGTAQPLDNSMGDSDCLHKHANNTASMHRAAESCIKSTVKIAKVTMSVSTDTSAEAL

Key:
rat CB1 = molecular target: T1, rat CB1 (Rattus norvegicus, UniProt P20272); test: [35S]-GTPγS binding, membranes of HEK293s cells transfected with rat CB1; format: biochemical; conditions: agonist mode; mean ± SEM, at least three experiments
T1 construct: expressed in transfected cells; host or cells: HEK293s, transient transfection; membranes prepared
Protocol: (§1) HEK293s cells were transiently transfected with cDNA encoding rat or mouse CB1 or GPR55 and membranes were prepared as previously described (Ryberg et al. [2007]). In short, agonist activities in [^35S]-GTPγS binding assays were determined by the addition of ligand at 30°C for 45 min in membrane buffer [50 mmol/L NaCl, 5 mmol/L MgCl2, 0.5 mmol/L EDTA, 25 mmol/L HEPES (all Sigma, Gillingham, Dorset, UK); pH 7.4] containing 0.05 μg μL^−1 of membrane protein with 0.01% BSA, 25 μmol/L guanosine 5′-diphosphate (GDP), 100 μmol/L dithiothreitol (DTT), and 0.53 nmol/L [^35S]GTPγS (PerkinElmer) in a final volume of 200 μL. Antagonist assays were performed similarly, with the addition of an EC80 concentration of CP55940 as a nonselective CB1/CB2 agonist in conjunction with the ligand to be tested. Nonspecific binding was determined in the presence of 20 μmol/L unlabeled GTPγS. The reaction was terminated by addition of ice-cold wash buffer (50 mmol/L Tris-HCl, 5 mmol/L MgCl2, 50 mmol/L NaCl; pH 7.4) followed by rapid filtration under vacuum through 96-well B-glass fiber filter plates (PerkinElmer, Waltham, Massachusetts, USA) using a Biomek FX (Beckman Coulter, Bromma, Sweden). The filter plates were dried (30 min at 50°C) before scintillation liquid (PerkinElmer) was added onto the filters and the bound radioactivity was determined using a scintillation counter (Wallac). […]

mouse CB1 = molecular target: T2, mouse CB1 (Mus musculus, UniProt P47746); test: [35S]-GTPγS binding, membranes of HEK293s cells transfected with mouse CB1; format: biochemical; conditions: agonist mode; mean ± SEM, at least three experiments
T2 construct: expressed in transfected cells; host or cells: HEK293s, transient transfection; membranes prepared
Protocol: as §1

[1] = test system: anesthetized Sprague–Dawley (SD) rats; test: Hemodynamic responses (MABP, HR) in anesthetized normotensive rats; format: in vivo, rat
Protocol: (§2) All experiments performed under terminal anesthesia were carried out following approval by Robert Gordon University Animal Ethics Panel. Anesthesia was induced in male SD rats (200–300 g) by sodium pentobarbital [60 mg kg^−1 intraperitoneal (i.p.) injection]. Male/female WT and GPR55^−/− mice (25–35 g) were anesthetized with a mixture of ketamine (120 mg kg^−1) and xylazine (16 mg kg^−1) via i.p. injection. For both species the trachea was cannulated to allow artificial respiration with room air when required (54 strokes min^−1 and tidal volume 1.5 mL 100 g^−1 for rats; 120 strokes min^−1 and tidal volume 100 μL 10 g^−1 for mice) and the left carotid artery and right jugular vein were cannulated for the measurement of arterial BP (MLT844 Physiological Pressure Transducer; AD Instruments, Oxford, UK) and drug administration, respectively. Core temperature was monitored continuously and maintained at 37–38°C with the aid of a Vetcare heated pad (Harvard Apparatus Ltd., Boston, Massachusetts, USA). Anesthesia was monitored by foot pinch reflex and maintained throughout by administration of additional doses of anesthetic (rats: 3–4 mg kg^−1 of sodium pentobarbital salt i.v.; mice: 50 μL 25 g^−1of ketamine/xylazine i.p.) every 40 min, or as required. […] Heart rate (HR) was calculated from the ECG and recorded throughout the entire experimental period. […]

[2] = test system: anesthetized WT and GPR55−/− mice; test: Hemodynamic responses (MABP, HR) in anesthetized WT and GPR55−/− mice; format: in vivo, mouse; conditions: AM251 alone (1 and 3 mg kg−1)
Protocol: as §2

Row | SMILES | EC50 (rat CB1) [nM] | EC50 (mouse CB1) [nM] | blood pressure response ([1]; AM251 (1 and 3 mg kg−1) in the presence of CBD (50 μg kg−1)) | blood pressure response ([1]; AM251 on its own (1 and 3 mg kg−1)) | blood pressure response ([2]; GPR55−/− mice) | blood pressure response ([2]; WT mice)
1 | C=C(C)[C@@H]1CCC(C)=C[C@H]1c1c(O)cc(CCCCC)cc1O [CBD, cannabidiol] | > 30000 | – | – | – | – | –
2 | CCCCC/C=C\C/C=C\C/C=C\C/C=C\CCCC(=O)NCCO [AEA, anandamide] | 34 ± 2 | 25 ± 8 | – | – | – | –
3 | Cc1c(C(=O)NN2CCCCC2)nn(-c2ccc(Cl)cc2Cl)c1-c1ccc(I)cc1 [AM251, 1-(2,4-dichlorophenyl)-5-(4-iodophenyl)-4-methyl-N-(piperidin-1-yl)-1H-pyrazole-3-carboxamide] | – | – | induced a depressor response | small and transient, but significant, depressor response | but not; also recorded: blunted response | induced a depressor response; also recorded: small and transient, but significant, depressor response
